Patent US4885301A, “Purinone derivatives which have bronchodilator, vasodilator and anti-allergic activities” (Smith Kline & French Laboratories Limited, priority 1987, dated 1989)

Target: T1, calmodulin insensitive cyclic GMP phosphodiesterase (Sus scrofa, UniProt A0A287B475)
T1 construct: Following dissection arteries were flash frozen in liquid nitrogen; from tissue; host or cells: pig pulmonary arteries or aortas, partially purified on DEAE-Sepharose, calmodulin-agarose and cibacron blue-agarose
Test: Inhibition of phosphodiesterase (PDE), cyclic GMP hydrolysis
Type: biochemical, pig
Experimental: Eight pig hearts/lungs were collected from the abattoir and kept on ice until the pulmonary arteries or aortas could be dissected and excess fat removed. 120 g of tissue was dissected. Unless otherwise stated all procedures were done at 4° C. Following dissection arteries were flash frozen in liquid nitrogen and stored at -70° C. until required. On the day of homogenisation, tissue was cooled with liquid nitrogen and broken into small pieces by striking with a hammer. The tissue was then homogenised in 15 mM BIS-TRIS, 1 μg/ml leupeptin and antipain, 2 μg/ml pepstatin A, 5 μM benzamidine, 2 mM EDTA (ethylenediaminetetraacetic acid) and 2 mM dithiothreitol, pH 6.5. Phenylmethanesulphonylfluoride (PMSF) was added to a final concentration of 50 μM just prior to homogenisation. The homogenate was then centrifuged for 20 minutes at 30,000 g. Supernatant was filtered firstly through glass wool and then a 0.45 μm filter. […] The column was washed with 150 mls of homogenisation buffer and PDE activities eluted with 150 ml of homogenisation buffer containing 100 mM sodium acetate. Six 25 ml fractions were collected, the flow rate throughout was 80 ml/hr. […]
and buffered with 50 mM TRIS/5 mM MgCl2 pH 7.5. […] Labelled 5'-AMP was eluted into a scintillation vial with 6 ml 0.25M acetic acid and counted in a scintillation counter using 10 ml Instagel (Packard). […]

## CCCOc1ccccc1-c1nc2nc[nH]c2c(=O)[nH]1 [Example 1, 2-(2-Propoxyphenyl)-6-purinone]
  pIC50: 6.02

pIC50: −log10 of the molar value.
